Biological target: central cannabinoid receptors (Rattus norvegicus, UniProt P20272)

Chains of the proteins cited; added tags and fusions are not shown.
UniProt P20272, whole entry: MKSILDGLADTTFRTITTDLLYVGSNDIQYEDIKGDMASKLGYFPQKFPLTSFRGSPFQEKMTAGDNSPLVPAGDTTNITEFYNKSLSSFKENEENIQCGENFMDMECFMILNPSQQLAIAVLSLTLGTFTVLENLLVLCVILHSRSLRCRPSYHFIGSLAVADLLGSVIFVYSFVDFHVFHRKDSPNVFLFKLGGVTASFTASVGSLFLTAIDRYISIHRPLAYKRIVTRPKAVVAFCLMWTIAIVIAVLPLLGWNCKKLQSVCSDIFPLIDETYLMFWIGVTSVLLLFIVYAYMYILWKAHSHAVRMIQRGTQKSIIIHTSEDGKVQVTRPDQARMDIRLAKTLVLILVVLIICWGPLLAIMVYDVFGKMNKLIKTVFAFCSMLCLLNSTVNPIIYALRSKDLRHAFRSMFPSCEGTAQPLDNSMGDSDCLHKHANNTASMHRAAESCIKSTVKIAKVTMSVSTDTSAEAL

Cc1c(C(=O)NN2CCCCC2)nn(-c2ccc(Cl)cc2Cl)c1-c1ccc(Cl)cc1 [N-piperidino-5-(4-chlorophenyl)-1-(2,4-dichlorophenyl)-4-methyl-pyrazole-3-carboxamide]
antagonism of the central cannabinoid receptors: potent and selective antagonist
